Assay results published in patent publication EP0961591B1, “METHOD TO ENHANCE TISSUE AC[…] RADIOLABELED COMPOUNDS” (BOARD OF SUPERVISORS OF LOUISIANA STATE UNIVERSITY AND …, priority 1997, dated 1999).
Several values for one entry are separate records, joined by “and”; a condition that tells them apart may be missing. Equal values may be shown once. Read-outs that look alike come from different tables or passages of the source.

Test system: tumor in the left side of the neck
[1] = Bolus Month 1, 179.9 mCi injected, 24 hr after injection
[2] = Bolus Month 2, 160.6 mCi injected, 24 hr after injection
[3] = Bolus Month 3, 182.6 mCi injected, 24 hr after injection
[4] = Bolus Month 4, 169.5 mCi injected, 24 hr after injection

(^111In-DTPA-D-Phe^1)-octreotide [^111In-pentetreotide]
External Dose Accumulation [1]: 80 mR/hr
Ratio [1]: 0.4447 mR/hr/mCi
External Dose Accumulation [2]: 28 mR/hr
Ratio [2]: 0.1743 mR/hr/mCi
External Dose Accumulation [3]: 33.20 mR/hr
Ratio [3]: 0.1818 mR/hr/mCi
External Dose Accumulation [4]: 27.2 mR/hr
Ratio [4]: 0.1605 mR/hr/mCi
Ratio (Bolus Month 5, 178.8 mCi injected, 24 hr after injection): 0.19 mR/hr/mCi and 0.1924 mR/hr/mCi
External Dose Accumulation (Bolus Month 5, 178.8 mCi injected, 72 hr after injection): 19.85 mR/hr
External Dose Accumulation (Bolus Month 5, 178.8 mCi injected, 120 hr after injection): 11.46 mR/hr
External Dose Accumulation (Bolus Month 5, 178.8 mCi injected, 216 hr after injection): 3.82 mR/hr
area under the curve (Infusion 1): 10,398 mR
External Dose Accumulation (Infusion 1 (over 72 hr, 2.5 mCi/hr), 0 hr from initial infusion): 2.0 mR/hr
External Dose Accumulation (Infusion 1 (over 72 hr, 2.5 mCi/hr), 24.5 hr from initial infusion): 54.8 mR/hr
External Dose Accumulation (Infusion 1 (over 72 hr, 2.5 mCi/hr), 49 hr from initial infusion): 69.7 mR/hr
External Dose Accumulation (Infusion 1 (over 72 hr, 2.5 mCi/hr), 137 hr from initial infusion): 32.9 mR/hr
External Dose Accumulation (Infusion 1 (over 72 hr, 2.5 mCi/hr), 161 hr from initial infusion): 25 mR/hr
External Dose Accumulation (Infusion 1 (over 72 hr, 2.5 mCi/hr), 185 hr from initial infusion): 20 mR/hr
External Dose Accumulation (Infusion 1 (over 72 hr, 2.5 mCi/hr), 214 hr from initial infusion): 15.4 mR/hr
Maximal Ratio (Infusion 1, first infusion period (24 hr, 53.52 mCi delivered)): 1.028 mR/hr/mCi
Maximal Ratio (Infusion 1, second infusion period (24 hr, 52.62 mCi delivered)): 0.6595 mR/hr/mCi
Maximal Ratio (Infusion 1, third infusion period (24 hr, 50.75 mCi delivered)): 0.4462 mR/hr/mCi
area under the curve (Infusion 2): 37,370 mR
External Dose Accumulation (Infusion 2 (389.22 mCi total), 0 hr from initial infusion): 2 mR/hr
External Dose Accumulation (Infusion 2 (389.22 mCi total), 20 hr from initial infusion): 181 mR/hr
External Dose Accumulation (Infusion 2 (389.22 mCi total), 22 hr from initial infusion): 171 mR/hr
External Dose Accumulation (Infusion 2 (389.22 mCi total), 47 hr from initial infusion): 183 mR/hr
External Dose Accumulation (Infusion 2 (389.22 mCi total), 65 hr from initial infusion): 220 mR/hr
External Dose Accumulation (Infusion 2 (389.22 mCi total), 144 hr from initial infusion): 81 mR/hr
peak activity (Infusion 2, 189.8 mCi infused in the first 24 hr): 220 mR/hour
Maximal Ratio (Infusion 2, first infusion period (20 hr, 189.76 mCi delivered)): 1.107 mR/hr/mCi
Maximal Ratio (Infusion 2, second infusion period (22 hr, 108.62 mCi delivered)): 0.6703 mR/hr/mCi
Maximal Ratio (Infusion 2, third infusion period (24 hr, 90.84 mCi delivered)): 0.5652 mR/hr/mCi
area under the curve (Infusion 3): 41,993 mR
External Dose Accumulation (Infusion 3 (346.49 mCi total), 0 hr from initial infusion): 0.68 mR/hr
External Dose Accumulation (Infusion 3 (346.49 mCi total), 2 hr from initial infusion): 36 mR/hr
External Dose Accumulation (Infusion 3 (346.49 mCi total), 3 hr from initial infusion): 90 mR/hr
External Dose Accumulation (Infusion 3 (346.49 mCi total), 4 hr from initial infusion): 144 mR/hr
External Dose Accumulation (Infusion 3 (346.49 mCi total), 8 hr from initial infusion): 260 mR/hr
External Dose Accumulation (Infusion 3 (346.49 mCi total), 9 hr from initial infusion): 270 mR/hr
External Dose Accumulation (Infusion 3 (346.49 mCi total), 13 hr from initial infusion): 400 mR/hr
External Dose Accumulation (Infusion 3 (346.49 mCi total), 16 hr from initial infusion): 470 mR/hr
External Dose Accumulation (Infusion 3 (346.49 mCi total), 17 hr from initial infusion): 460 mR/hr
External Dose Accumulation (Infusion 3 (346.49 mCi total), 22 hr from initial infusion): 380 mR/hr
External Dose Accumulation (Infusion 3 (346.49 mCi total), 23 hr from initial infusion): 375 mR/hr
External Dose Accumulation (Infusion 3 (346.49 mCi total), 25 hr from initial infusion): 360 mR/hr
External Dose Accumulation (Infusion 3 (346.49 mCi total), 26 hr from initial infusion): 350 mR/hr
External Dose Accumulation (Infusion 3 (346.49 mCi total), 29 hr from initial infusion): 345 mR/hr
External Dose Accumulation (Infusion 3 (346.49 mCi total), 30 hr from initial infusion): 340 mR/hr
External Dose Accumulation (Infusion 3 (346.49 mCi total), 31 hr from initial infusion): 335 mR/hr
External Dose Accumulation (Infusion 3 (346.49 mCi total), 40 hr from initial infusion): 310 mR/hr
External Dose Accumulation (Infusion 3 (346.49 mCi total), 46 hr from initial infusion): 280 mR/hr
External Dose Accumulation (Infusion 3 (346.49 mCi total), 47 hr from initial infusion): 275 mR/hr
External Dose Accumulation (Infusion 3 (346.49 mCi total), 67 hr from initial infusion): 230 mR/hr
External Dose Accumulation (Infusion 3 (346.49 mCi total), 90 hr from initial infusion): 179 mR/hr
peak activity (Infusion 3, 301 mCi infused in the first 24 hr): 470 mR/hour
Maximal Ratio (Infusion 3, first infusion period (17 hr, 301.07 mCi delivered)): 1.561 mR/hr/mCi
highest mR/mCi ratio (Infusion Dose 1, after the first 24 hr infusion): 1.03 mR/mCi
area under the curve (bolus injection): 4,030 mR
